The assay deals with human insulin receptor isoform B (hIR-B) (Homo sapiens, UniProt P06213). Description: biochemical. It counts as binding.

Sequences of proteins named here, by UniProt entry; tags and fusion partners are left off. Residues count along the entry.
UniProt P06213, 28-758 limits assumed: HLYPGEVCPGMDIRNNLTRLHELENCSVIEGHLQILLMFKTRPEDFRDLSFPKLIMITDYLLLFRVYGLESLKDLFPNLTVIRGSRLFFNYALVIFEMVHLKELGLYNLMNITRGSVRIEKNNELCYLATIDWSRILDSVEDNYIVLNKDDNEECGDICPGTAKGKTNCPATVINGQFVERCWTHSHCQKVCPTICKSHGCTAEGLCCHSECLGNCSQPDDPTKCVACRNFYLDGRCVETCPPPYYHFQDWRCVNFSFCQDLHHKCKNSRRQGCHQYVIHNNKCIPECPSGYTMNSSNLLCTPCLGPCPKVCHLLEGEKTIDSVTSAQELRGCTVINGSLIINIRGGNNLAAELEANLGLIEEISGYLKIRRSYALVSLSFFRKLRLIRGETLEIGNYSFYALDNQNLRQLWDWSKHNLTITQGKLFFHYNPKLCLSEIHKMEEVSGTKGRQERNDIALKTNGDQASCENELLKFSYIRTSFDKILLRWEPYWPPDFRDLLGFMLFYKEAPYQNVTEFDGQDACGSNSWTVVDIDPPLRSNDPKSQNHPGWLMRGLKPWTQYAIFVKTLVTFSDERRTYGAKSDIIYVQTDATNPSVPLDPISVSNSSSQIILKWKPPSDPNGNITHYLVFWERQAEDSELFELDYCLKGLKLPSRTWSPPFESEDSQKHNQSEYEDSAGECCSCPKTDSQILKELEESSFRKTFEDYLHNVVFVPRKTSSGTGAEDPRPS
UniProt P06213, 763-1382 partner limits assumed: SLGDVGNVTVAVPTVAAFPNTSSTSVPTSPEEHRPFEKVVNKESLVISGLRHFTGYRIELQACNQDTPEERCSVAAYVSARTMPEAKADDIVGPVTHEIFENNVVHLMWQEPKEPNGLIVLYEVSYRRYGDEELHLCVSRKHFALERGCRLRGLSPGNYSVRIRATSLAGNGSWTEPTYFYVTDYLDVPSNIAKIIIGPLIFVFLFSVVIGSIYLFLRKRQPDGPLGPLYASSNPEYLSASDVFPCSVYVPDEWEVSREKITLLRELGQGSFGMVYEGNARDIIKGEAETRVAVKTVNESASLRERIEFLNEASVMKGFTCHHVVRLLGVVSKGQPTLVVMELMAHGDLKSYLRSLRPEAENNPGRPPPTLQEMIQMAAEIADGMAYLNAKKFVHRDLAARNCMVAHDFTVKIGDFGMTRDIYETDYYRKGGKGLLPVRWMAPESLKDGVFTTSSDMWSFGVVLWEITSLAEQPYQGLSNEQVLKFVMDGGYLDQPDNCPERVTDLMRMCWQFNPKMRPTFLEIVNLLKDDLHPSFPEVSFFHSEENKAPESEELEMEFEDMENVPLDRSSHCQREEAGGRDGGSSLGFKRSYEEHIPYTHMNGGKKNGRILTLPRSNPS

Molecule `CC[C@H](C)[C@@H]1NC(=O)[C@H](CC(C(=O)O)C(=O)O)NC(=O)[C@H](CO)NC(=O)CNC(=O)[C@@H](NC(=O)[C@H](CCCNC(=N)N)NC(=O)[C@H](Cc2c[nH]cn2)NC(=O)[C@H](CCCCN)NC(=O)[C@@H]2C[C@@H](O)CN2C(=O)[C@@H](NC(=O)[C@H](CC(=O)O)NC(=O)[C@H](Cc2ccccc2)NC(=O)[C@@H](N)[C@@H](C)O)[C@@H](C)O)CSSC[C@@H]2NC(=O)[C@@H](NC(=O)[C@H](Cc3c[nH]cn3)NC(=O)[C@H](CC(C(=O)O)C(=O)O)NC(=O)[C@@H](NC(=O)[C@@H](NC(=O)CN)C(C)C)C(C)C)CSSC[C@H](NC(=O)[C@@H]3CCCN3C(=O)[C@H](CCCNC(=N)N)NC(=O)[C@H](Cc3c[nH]cn3)NC2=O)C(=O)N[C@@H](CO)C(=O)N[C@@H](CC(N)=O)C(=O)N[C@@H](C)C(=O)N[C@@H](CCC(=O)O)C(=O)N[C@@H](Cc2ccccc2)C(=O)N[C@@H](CCCCN)C(=O)N[C@@H](CCCCN)C(=O)N[C@@H](Cc2ccc(O)cc2)C(=O)N[C@H](C(N)=O)CSSC[C@@H](C(=O)N[C@@H](Cc2ccc(O)cc2)C(=O)N[C@@H](CCCNC(=N)N)C(=O)O)NC(=O)[C@H](CC(C)C)NC(=O)[C@H](CC(=O)O)NC(=O)[C@H](CCSC)NC(=O)[C@H](Cc2ccc(O)cc2)NC(=O)[C@H](CO)NC(=O)[C@H](CC(N)=O)NC(=O)[C@H]([C@@H](C)O)NC1=O` [Con-Ins G1] gave an IC50 of 0.011 µM.

As usually defined, the IC50 is the midpoint of a concentration-inhibition curve. A higher IC50 goes with weaker potency in that assay.

The values above are taken from PMC6372279 (eLife, 2019).
